## Apparent affinities of Ab-14 variants for a coronavirus HR2 peptide

Reference: Engelhart et al. 2022, doi:10.1038/s41597-022-01779-4. File: FLAb, binding data.

Binding partner: SARS-CoV-2 spike HR2 peptide, sequence PDVDLGDISGINAS.

Parent: Ab-14, a human scFv built as VH, the linker GGGGSGGGGSGGGGS, VL. Only the CDRs of the light chain vary.
VH: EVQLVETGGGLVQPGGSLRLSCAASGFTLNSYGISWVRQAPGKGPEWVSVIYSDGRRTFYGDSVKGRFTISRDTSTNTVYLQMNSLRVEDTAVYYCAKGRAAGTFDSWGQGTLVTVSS
VL: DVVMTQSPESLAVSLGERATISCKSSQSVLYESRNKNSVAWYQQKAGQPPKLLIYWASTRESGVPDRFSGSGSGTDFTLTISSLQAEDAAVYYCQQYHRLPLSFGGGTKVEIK

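The parent was found by panning a naive human phage display library on the peptide. Variants in AAYL50 differ from the parent at up to three CDR positions; double and triple changes were sampled at random. AlphaSeq pools MATa yeast showing the antibodies with MATalpha yeast showing the peptide. Mating (16 h, 30 °C) was followed by selection of diploids and sequencing of their barcodes. A regression on co-assayed BCL2-family reference pairs converts the normalised counts of each replicate to an apparent Kd. Each pool was mated in three replicate cultures.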

The parent's light chain CDRs are KSSQSVLYESRNKNSVA, WASTRES, QQYHRLPLS; each variant's own CDRs replace them letter for letter. Values are apparent Kd, the geometric mean of the replicates that gave a signal; lower means stronger binding. An entry "nd" has no value in the source: the pair was not observed among the diploids in any replicate. This suggests poor binding but is not conclusive. Three control strains display no target. For library AAYL50, 18% of the pairings with them gave a signal, with a median of 15 µM and one signal in twenty below 970 nM, so weak values seen in few replicates may be background. The control count says in how many pairings with the empty strains this scFv gave a signal.

| CDR-L1 | CDR-L2 | CDR-L3 | apparent Kd | detected | signal with controls |
|---|---|---|---|---|---|
| QVSQSVLYESRNKNSVC | WASTRES | QQYHRLPLS | nd | 0 of 3 | 0 of 9 |
| KSSQSVLYESRNKSFVA | WASTRES | QQYHRLPES | nd | 0 of 3 | 0 of 9 |
| KSSQSVLYYSRNKNSVA | WPSTPES | QQYHRLPLS | nd | 0 of 3 | 0 of 9 |
| QSSQNVLYESRNKNSVA | WASTRES | QQYHRHPLS | 62 µM | 1 of 3 | 4 of 9 |
| KSSQSVLYESVFKNSVA | DASTRES | QQYHRLPLS | 730 pM | 3 of 3 | 0 of 9 |
| KSSQSVLYESPNKNSVA | DASYRES | QQYHRLPLS | 810 pM | 3 of 3 | 0 of 9 |
| KSSQSVLYRSRNKNSVA | WCSTRES | QQYHRLPLC | nd | 0 of 3 | 0 of 9 |
| KSSQKVLYESVNKNSVA | WASTRHS | QQYHRLPLS | 10 nM | 3 of 3 | 4 of 9 |
| TSSQSVLYESRNKNSVA | WLSTRES | QWYHRLPLS | 39 µM | 1 of 3 | 0 of 9 |
| KSSQSVLYESRNKNSVT | WFSTRES | QQYHRLPLS | 2.3 µM | 1 of 3 | 3 of 9 |
| KSSQSVLYESRNKNSVA | WASNRES | QQYHRLPLP | 860 nM | 3 of 3 | 4 of 9 |
| KSSQSVLYESRNKNSVA | WASTREQ | QQYHRYPLK | 150 nM | 3 of 3 | 3 of 9 |
| KSSQVVLYESRNKNSVA | WASARES | QQYHRIPLS | 3.3 µM | 1 of 3 | 0 of 9 |
| TYSQSVQYESRNKNSVA | WASTRES | QQYHRLPLS | 3.7 nM | 3 of 3 | 1 of 9 |
| KSSQSVLYESTNKNSVA | WASTRES | QQYHQLPES | 6.7 nM | 3 of 3 | 2 of 9 |
| KSSQSALYESRNKTSVA | LASTRES | QQYHRLPLS | 1.8 µM | 1 of 3 | 1 of 9 |
| KSSQSVLYESRNKFSVA | WASTDES | QQYHRLPLP | 38 µM | 2 of 3 | 3 of 9 |
| KSSQSVFYESGNKNSVA | WASNRES | QQYHRLPLS | 5.5 nM | 3 of 3 | 3 of 9 |
| KSSGSVLYESRNKTSVA | WASTRES | QQYHRLPLS | 300 nM | 3 of 3 | 5 of 9 |
| KSSQSVLYEERNLNSVA | WASMRES | QQYHRLPLS | 4.4 nM | 3 of 3 | 0 of 9 |
| KSSQSVLYESRNSNSVA | WASTREQ | PQYHRLPLS | nd | 0 of 3 | 2 of 9 |
| KSSQSVLYESRNKNSVA | NACTEES | QQYHRLPLS | 58 nM | 1 of 3 | 0 of 9 |
| HSSQSVLYESRMKNSVA | WACTRES | QQYHRLPLS | 360 nM | 3 of 3 | 6 of 9 |
| KSSQSQLYESRNKNSVA | WASWRES | QQYHRLALS | nd | 0 of 3 | 0 of 9 |
| KSSQSVLYESCNKNKVA | QASTRES | QQYHRLPLS | 8.1 nM | 3 of 3 | 2 of 9 |
| KSSQSSLYESRNKNSVA | WASTRES | WQYRRLPLS | nd | 0 of 3 | 0 of 9 |
| KSSQRVLFESRNKNSVA | WASTRES | WQYHRLPLS | 490 µM | 1 of 3 | 1 of 9 |
| KSSQSVLGESRNKNSVA | WAPTRES | QQYHRLPLS | nd | 0 of 3 | 0 of 9 |

Continued, with the values leading:

| apparent Kd | detected | signal with controls | CDR-L1 | CDR-L2 | CDR-L3 |
|---|---|---|---|---|---|
| 6.6 nM | 3 of 3 | 0 of 9 | KISQSVLYESRNKISVA | WASTRES | QQYHRLPLV |
| 1.6 µM | 1 of 3 | 1 of 9 | KSSQSVLYESRNKNSMA | WASTRFS | YQYHRLPLS |
| 320 nM | 1 of 3 | 0 of 9 | KSSQSVWYESRNKNPVA | WASYRES | QQYHRLPLS |
| 11 µM | 3 of 3 | 3 of 9 | CSSQSVLYESRNKESVA | WASTREY | QQYHRLPLS |
| 5.5 nM | 3 of 3 | 0 of 9 | KSSQSVPEESQNKNSVA | WASTRES | QQYHRLPLS |
| nd | 0 of 3 | 3 of 9 | KSSQSRLYEVRNKNSVA | AASTRES | QQYHRLPLS |
| nd | 0 of 3 | 3 of 9 | KSSQSVLYESRNKNSVA | WAWTRES | QQIHRGPLS |
| 210 nM | 3 of 3 | 2 of 9 | KSSQSVAYESRNKNSVA | WKSTRES | QQYMRLPLS |
| 200 µM | 2 of 3 | 1 of 9 | DNSQSVLYESRNKNSVA | WASTRES | QQYHRLELS |
| nd | 0 of 3 | 0 of 9 | KSSQSVLYESFNKNSVA | WASTRES | QEYHRLPLS |
| 420 nM | 3 of 3 | 2 of 9 | CSKQSVLYESRNKNSVA | WASTRES | QQYHRLPLS |
| 140 nM | 1 of 3 | 0 of 9 | RSSQSVLYESRNKNSVA | WGSTRES | QCYHRLPLS |
| 1.1 µM | 3 of 3 | 1 of 9 | KSSQSVSYESRNKNSVA | WASTRES | QGYWRLPLS |
| 610 µM | 1 of 3 | 3 of 9 | KSSQSVLYESRNKISVP | WASTRES | QQYHRLPSS |
| 40 µM | 1 of 3 | 5 of 9 | KSSQSTLYESRNKNSVA | WASTRES | QKYHRLPLS |
| 1.1 µM | 3 of 3 | 7 of 9 | KSSQSVLYESVNKGSVA | WASTRES | QQYHRLPGS |
| 5.7 nM | 3 of 3 | 3 of 9 | KSSQSVLYESRNKNSVA | WASTRES | QQYHRAPLD |
| 8.0 nM | 3 of 3 | 2 of 9 | KSYPMVLYESRNKNSVA | WASTRES | QQYHRLPLS |
| 7.9 nM | 3 of 3 | 2 of 9 | KSSSSVLYESRNKNSVA | WASTRKP | QQYHRLPLS |
| 170 nM | 3 of 3 | 2 of 9 | KSSQSVLYESRNKNSVA | WANTREN | QQYHRLPLS |
| 1.8 µM | 3 of 3 | 0 of 9 | YSSQSVLCESRNKNSVA | WASCRES | QQYHRLPLS |
| 470 µM | 1 of 3 | 2 of 9 | KSVQSVLYESRNKNSVA | WASTRES | QQYHSLPQS |
| nd | 0 of 3 | 0 of 9 | KSSQSVLYESRNDNSVA | WASWWES | QQYHRLPLS |
| 3.6 µM | 1 of 3 | 3 of 9 | KSSQSVLYESRNKNSVM | WCSTRES | MQYHRLPLS |
| 130 nM | 3 of 3 | 5 of 9 | KSSQSVLRESRNCNSVA | WASTRES | QQYHRLPWS |
| nd | 0 of 3 | 1 of 9 | KSSQSVLYSSRNKNEVA | WASTRIS | QQYHRLPLS |
| nd | 0 of 3 | 0 of 9 | KSSQSWLYESRNKNSVA | WASTRES | PQYHRPPLS |
| nd | 0 of 3 | 2 of 9 | ISSQSVLYESRNKNSVA | WASTRES | QQYHRVPRS |

Picked from the list: the 9 lowest averages where every replicate gave a value.

{"CDR-L1": "KSSQSVLYESVFKNSVA", "CDR-L2": "DASTRES", "CDR-L3": "QQYHRLPLS", "apparent Kd": "730 pM", "detected": "3 of 3", "signal with controls": "0 of 9"}
{"CDR-L1": "KSSQSVLYESPNKNSVA", "CDR-L2": "DASYRES", "CDR-L3": "QQYHRLPLS", "apparent Kd": "810 pM", "detected": "3 of 3", "signal with controls": "0 of 9"}
{"CDR-L1": "TYSQSVQYESRNKNSVA", "CDR-L2": "WASTRES", "CDR-L3": "QQYHRLPLS", "apparent Kd": "3.7 nM", "detected": "3 of 3", "signal with controls": "1 of 9"}
{"CDR-L1": "KSSQSVLYEERNLNSVA", "CDR-L2": "WASMRES", "CDR-L3": "QQYHRLPLS", "apparent Kd": "4.4 nM", "detected": "3 of 3", "signal with controls": "0 of 9"}
{"CDR-L1": "KSSQSVPEESQNKNSVA", "CDR-L2": "WASTRES", "CDR-L3": "QQYHRLPLS", "apparent Kd": "5.5 nM", "detected": "3 of 3", "signal with controls": "0 of 9"}
{"CDR-L1": "KSSQSVFYESGNKNSVA", "CDR-L2": "WASNRES", "CDR-L3": "QQYHRLPLS", "apparent Kd": "5.5 nM", "detected": "3 of 3", "signal with controls": "3 of 9"}
{"CDR-L1": "KSSQSVLYESRNKNSVA", "CDR-L2": "WASTRES", "CDR-L3": "QQYHRAPLD", "apparent Kd": "5.7 nM", "detected": "3 of 3", "signal with controls": "3 of 9"}
{"CDR-L1": "KISQSVLYESRNKISVA", "CDR-L2": "WASTRES", "CDR-L3": "QQYHRLPLV", "apparent Kd": "6.6 nM", "detected": "3 of 3", "signal with controls": "0 of 9"}
{"CDR-L1": "KSSQSVLYESTNKNSVA", "CDR-L2": "WASTRES", "CDR-L3": "QQYHQLPES", "apparent Kd": "6.7 nM", "detected": "3 of 3", "signal with controls": "2 of 9"}